Patent publication US20220204476A1, “RNA VIRUS INHIBITOR COMPOUNDS AND USES THEREOF” (The Governors of the University of Alberta, priority 2020, published 2022)

Experiment: Cytotoxicity, CellTiter-Glo luminescent cell viability assay
Conditions: human (A549) and green monkey (Vero E6)

SMILES: COc1cc(Cl)cc2[nH]c(C(=O)N[C@@H](CC(C)C)C(=O)N[C@H](C#N)C[C@@H]3CCCNC3=O)cc12 [Compound 68, 6-chloro-N-[(2S)-1-({(1S)-1-cyano-2-[(3S)-2-oxopiperidin-3-yl]ethyl}amino)-4-methyl-1-oxopentan-2-yl]-4-methoxy-1H-indole-2-carboxamide]
- CC50 at 24 h: > 200 µM
